Common to all, as to type: cell-based
The subject of assay [1] is H1975 cells. The experiment in a line: H1975 CTG proliferation assay.
The subject of assay [2] is SW620 cells. Nature of the assay: SW620 3D proliferation assay (CellTiter-Glo). The settings on record: SW620, 3D culture, 7 days, read-out: SW620 CTG IC50. Here is the method: (§1) SW620 and HPAC 3D proliferation assays.
(§2) Compound potencies were assessed in proliferation assays conducted with SW620 and HPAC cell lines grown in 3D cultures. Cells were seeded into 96- or 384-well ultra-low attachment plates at 3000 or 1000 cells/well, respectively, in culture medium (RPMI-1640, 10% FBS, 2 mM L-glutamine). The plated cells were centrifuged briefly, allowed to rest for 30 minutes under ambient conditions, and cultured overnight at 37° C./5% CO2 to initiate the formation of spheroids. Compound dilutions were prepared across a range of concentrations in DMSO and added to the appropriate wells of the assay plates with a 333-fold dilution into the culture medium. The plates were further incubated for 7 days. The quantity of viable cells was assessed using CellTiter-Glo 3D Cell Viability Assay (Promega). The detection reagent penetrates the spheroids and lyses the cells. The released ATP that was detected with luciferase and a luciferase substrate to generate a luminescent readout. […] The data points were fit to a 4-parameter logistic equation to determine IC50 values.

Assay [3] deals with SW620 PERK. Nature of the assay: SW620 PERK assay.
Assay [4] relates to HPAC cells. Nature of the assay: HPAC 3D proliferation assay (CellTiter-Glo). The conditions noted are these: 3D culture, 7 days, read-out: HPAC CTG IC50. Here is the method:
as §1, §2
A general note: In ATP-based viability assays light output follows the ATP content of the culture.

In the case of `Cc1c(F)c(N)c(F)c(-c2nc3c4c(nc(OC[C@@H]5CCCN5C)nc4c2F)N([C@@H](C)c2cccnc2N)CCO3)c1C(F)(F)F` [compound 625], the 50% inhibitory concentration (IC50) – broadly, the point on the concentration scale where inhibition reaches its midpoint – was determined as 759 nM in assay [1], 62.4 nM in assay [2], 59.3 nM in assay [3] and 451 nM in assay [4].

The values above are taken from patent US20240228512A1, “ACYCLIC OXAZEPINE COMPOUNDS COMPRISING A 6-AZA MOIETY AND USES THEREOF” (Genentech, Inc., priority 2022, published 2024).
